Laboratory results as given in patent US10745393B2, “Small molecular probes, processes and use thereof” (JAWAHARLAL NEHRU CENTRE FOR ADVANCED SCIENTIFIC RESEARCH, priority 2014, dated 2020).

Columns and labels:
[1] = tested on: DNA; assay: Comparison of DNA dyes: sequence selectivity and fluorescence of free/DNA bound dye; type: binding; settings: fluorescence studies with dsDNAs
[2] = tested on: d(AATT)5; assay: Absorption / fluorescence response with self-complementary d(AATT)5 duplex; type: binding; settings: probe 10 μM, Tris-HCl buffer
[3] = tested on: DNA; settings: cited from earlier work

Substance	preferential binding affinity, AT-sites versus GC-sites [1]	fluorescence with d(AATT)5 compared with (D1)mix and (D2)mix [2]	shift of absorption spectra with d(AATT)5, (D1)mix and (D2)mix [2]	Selectivity ([3]; Table 3, commercial dyes)	Fluorescence qauntum yield (ΦF) DNA bound dye ([3]; Table 3, superscript a, commercial dyes)
(E)-3-(N-Methyl 2-(benzo[d]thiazol-2-yl)vinyl)-7-(bis(2-chloroethyl)amino)-2H-chromen-2-one	towards AT-sites than GC-sites	maximum fluorescence in presence of d(AATT)5 over (D1)mix and (D2)mix	slight red shift		
Hoechst 33258				AT rich	0.34 ^a
